Data reported in patent US20230256106A1, “DRUG DELIVERY SYSTEM FOR LOCALLY DELIVERING THERAPEUTIC AGENTS AND USES THEREOF” (priority 2020, published 2023).

Settings: about 2.5±1.0 mg/mL conjugate in 10 mM PBS buffer (pH=7.4), 37° C., shaker 100 rpm; daily ultrafiltration (30 k), free drug by HPLC; average release of free drug per day

## conjugate of phenyl N-(4-aminobutyl)-P-(4-(((3R,4R)-1-(2-cyanoacetyl)-4-methylpiperidin-3-yl)(methyl) amino)-7H-pyrrolo[2,3-d]pyrimidin-7-yl)phosphonamidate and HA
  Release rate (%/day): 1.03%/day
